Measured values taken from US10696692B2, “Amido-benzyl sulfone and sulfoxide derivates” (Forma TM, LLC, priority 2012, dated 2020).

Protein sequences, listed by entry. Tags and fused reporters are not part of them. Lines headed by an entry give the natural chain unless they say otherwise; changes in a name come on top.
UniProt P43490: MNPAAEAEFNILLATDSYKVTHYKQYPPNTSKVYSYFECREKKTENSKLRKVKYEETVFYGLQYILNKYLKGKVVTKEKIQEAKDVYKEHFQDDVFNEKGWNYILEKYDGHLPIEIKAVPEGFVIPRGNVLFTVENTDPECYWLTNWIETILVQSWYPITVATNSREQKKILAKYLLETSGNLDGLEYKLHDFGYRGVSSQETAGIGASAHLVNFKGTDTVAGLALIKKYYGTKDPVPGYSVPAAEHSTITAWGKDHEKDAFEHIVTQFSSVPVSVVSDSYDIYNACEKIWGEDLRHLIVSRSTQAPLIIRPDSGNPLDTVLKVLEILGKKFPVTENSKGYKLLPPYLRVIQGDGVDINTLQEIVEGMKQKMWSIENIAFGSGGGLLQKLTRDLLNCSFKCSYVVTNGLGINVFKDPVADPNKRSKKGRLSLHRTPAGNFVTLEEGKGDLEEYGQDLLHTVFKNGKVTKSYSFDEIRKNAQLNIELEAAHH

Target: NAMPT (Homo sapiens (Human), UniProt P43490)
Assay: Assay 1: Biochemical Inhibition Assay (NAMPT enzymatic reaction, NMN quantified by mass spectrometry);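 further: recombinant His-tagged human NAMPT preincubated with compound 15 min, then reacted 30 min at rt with 1 µM NAM, 100 µM PRPP, 2.5 mM ATP, NMN product read by RapidFire MS, normalized to L-Cystathionine internal standard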

Compound	IC50 [nM]
O=C(NCc1ccc(S(=O)(=O)N2CC3(CCNCC3)C2)cc1)c1ccc2nccn2c1 [Example 261, N-[[4-(2,7-diazaspiro[3.5]nonan-2-ylsulfonyl)phenyl]methyl] imidazo[1,2-a]pyridine-6-carboxamide]	14.2
O=C(NCc1ccc(S(=O)(=O)N2CCC(N3CCCC3)CC2)cc1)c1cnc2[nH]ncc2c1 [Example 156, 1 H-Pyrazolo[3,4-b]pyridine-5-carboxylic acid 4-(4-pyrrolidin-1-yl-piperidine-1-sulfonyl)-benzylamide]	94.1
